Here are results for 29 compounds from ChEMBL document CHEMBL4334547 (ACS Med Chem Lett, 2020).

pEC50: −log10 of the molar value.

The assay can be described thus: Inhibition of mouse derived homozygous Tg0N4R P301S mutant tau-induced human ON4R tau aggregation harboring P301S mutant transfected in HEK293 cells preincubated for 2 hrs followed by compound addition and measured after 3 hrs by YFP-based fluorescence assay.

`CN(C)C(=O)Cn1cc(-c2ccc(-c3cncc4ccccc34)cc2)cn1` had a pEC50 of 8.30. As to `COc1ccc2cncc(N3CCN(c4ccc5cnn(C)c5c4)CC3)c2c1`, the pEC50 is under 5.00.

Turning to `Cc1csc(CC(=O)N2CCN(c3cncc4ccccc34)CC2)n1`, the pEC50 was 6.92. For the compound `O=C(C1CCOC1)N1CCN(c2cncc3ccccc23)CC1` (centres undefined), the pEC50 was 6.23. The value for `CNC(=O)c1ccc2cncc(-c3ccc4c(c3)CS(=O)(=O)N4C)c2n1` was 8.05; that for `O=C(CC1CCCO1)N1CCN(c2cncc3ccccc23)CC1` (centres undefined) was under 5.00; that for `Cc1nc2ccc(N3CCN(c4cncc5ccccc45)CC3)cc2o1` was under 5.00. For `CC(C)(C)c1nc(CC(=O)N2CCN(c3cncc4ccccc34)CC2)co1`, the pEC50 is 6.17. The figure for `Cn1ncc2ccc(N3CCN(c4cncc5ccccc45)CC3)cc21` is 6.92. For the compound `O=C(Cc1coc(C2CC2)n1)N1CCN(c2cncc3ccccc23)CC1`, the pEC50 is 6.92.

`CC(=O)c1ccc2cncc(N3CCN(c4ccc5cnn(C)c5c4)CC3)c2c1` showed a pEC50 of 7.82. Take `Cn1cc2ccc(N3CCN(c4cncc5ccccc45)CC3)nc2n1`: the pEC50 is under 5.00. The compound `Cn1cc2ccc(N3CCN(c4cncc5ccccc45)CC3)cc2n1` gave a pEC50 of 7.66. The figure for `Cc1nc2cc(N3CCN(c4cncc5ccccc45)CC3)ccc2o1` is under 5.00; for `Cn1cc2ccc(N3CCN(c4cncc5ccccc45)CC3)c(F)c2n1` it is under 5.00. The figure for `Cc1nc(CC(=O)N2CCN(c3cncc4ccccc34)CC2)co1` is 6.55; for `Cc1nc2cc(N3CCN(c4cncc5ccccc45)CC3)ccn2n1` it is 5.96. The value for `Cn1ncc2ccc(N3CCN(c4cncc5ccc(C#N)cc45)CC3)cc21` was 7.46; that for `Cn1ncc2ccc(N3CCN(c4cncc5ccc(C(F)F)cc45)CC3)cc21` was 7.01; that for `CC(C)(C)C(=O)N1CCN(c2cncc3ccccc23)CC1` was 6.04.

Consider `Cc1cn2ccc(N3CCN(c4cncc5ccccc45)CC3)cc2n1`, for which the pEC50 was 6.48. The figure for `O=C(Cc1nc(C(F)(F)F)cs1)N1CCN(c2cncc3ccccc23)CC1` is 6.40. For the compound `CC(C)n1ccc(CC(=O)N2CCN(c3cncc4ccccc34)CC2)n1`, the pEC50 is 6.77. The figure for `CC1(C(=O)N2CCN(c3cncc4ccccc34)CC2)COC1` is 5.85; for `CN(CC(=O)N1CCN(c2cccc3ccccc23)CC1)C(=O)c1cccs1` it is under 5.00; for `Cn1nccc1CC(=O)N1CCN(c2cncc3ccccc23)CC1` it is under 5.00. The compound `Cc1cc(CC(=O)N2CCN(c3cncc4ccccc34)CC2)on1` had a pEC50 of 5.00.

For `Cn1ccc(CC(=O)N2CCN(c3cncc4ccccc34)CC2)n1`, the pEC50 is 6.28. `CN(CC(=O)N1CCN(c2cncc3ccccc23)CC1)C(=O)c1cccs1` gave a pEC50 of 6.41.

Usually pEC50 stands for −log10 of the EC50, conventionally taken in molar units. Read a low pEC50 as a high EC50.
